# The source made the active and inactive calls. The rule behind the calls is not given here.
# Amino acid sequences for entries named in this document (tags omitted).
# UniProt P07550, whole entry: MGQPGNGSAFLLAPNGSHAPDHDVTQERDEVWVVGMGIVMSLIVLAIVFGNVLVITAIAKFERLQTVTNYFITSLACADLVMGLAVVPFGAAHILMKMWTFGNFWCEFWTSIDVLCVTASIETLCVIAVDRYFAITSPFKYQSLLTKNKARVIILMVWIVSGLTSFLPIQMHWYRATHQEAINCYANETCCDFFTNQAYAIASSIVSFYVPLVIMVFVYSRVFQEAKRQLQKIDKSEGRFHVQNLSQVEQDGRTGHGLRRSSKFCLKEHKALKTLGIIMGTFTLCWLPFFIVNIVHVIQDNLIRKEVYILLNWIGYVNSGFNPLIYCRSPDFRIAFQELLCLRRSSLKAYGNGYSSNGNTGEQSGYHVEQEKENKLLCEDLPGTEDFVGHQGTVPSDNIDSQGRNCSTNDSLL
# Legend:
# [1] = species on record: Cavia porcellus; experiment: Bronchodialatory activity against electrically-stimulated contraction in guinea pig trachea assessed as inhibition of recovery of contractile effect measured after 3 hrs of drug washout; assay type: functional, tissue-based
# [2] = species on record: Cavia porcellus; experiment: Bronchodialatory activity against electrically-stimulated contraction in guinea pig trachea assessed as inhibition of recovery of contractile effect measured after 1 hr of drug washout; assay type: functional, tissue-based
# [3] = target: Beta-2 adrenergic receptor (Homo sapiens, UniProt P07550)
EC50 [3],SMILES,Activity [1],Activity [2]
–,COc1ccc(C[C@@H](C)NC[C@H](O)c2ccc(O)c(NC=O)c2)cc1,inactive,inactive
398 pM,CC(=O)O.OCc1cc([C@@H](O)CNCCCCCCOCCOCc2c(Cl)cccc2Cl)ccc1O [VILANTEROL ACETATE],–,–

# From ChEMBL document CHEMBL1155518, “Synthesis and structure-activity relationships of long-acting beta2 adrenergic receptor agonists incorporating metabolic inactivation: an antedrug approach” (J Med Chem, 2010)
